This is an account of results in ChEMBL document CHEMBL5236663, “Structure-activity relationship of dibenzylideneacetone analogs against the neglected disease pathogen, Trypanosoma brucei” (Bioorg Med Chem Lett, 2023).

Some results are limits rather than exact numbers.

In this series the test system is HEK293. The series is described as follows: Cytotoxicity against human HEK293 cells assessed as reduction in cell viability at 20 uM measured after 48 hrs by resazurin reagent based multilabel reader analysis. The format is toxicity. The settings on record: hek293, 48 h. In general terms: Alamar Blue is a resazurin reagent that responds to reducing activity.

For the compound `COc1ccc(/C=C/C(=O)CC(=O)/C=C/c2ccc(OC)cc2OC)c(OC)c1`, the CC50 (in general, the concentration that lowers cell viability or growth by half) is more than 20 µM.
